Measured affinities in a library of Ab-14 light chain variants

Antigen: PDVDLGDISGINAS, a 14-residue peptide of the SARS-CoV-2 spike HR2 region.

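The starting antibody came from a phage panning campaign against this peptide. Library AAYL50 holds single substitutions and randomly drawn double and triple substitutions in the CDRs. In AlphaSeq, yeast of one mating type display the scFv and yeast of the other type display the target. Binding brings cells together so that they mate, and sequencing counts the barcode pairs among the diploids. Read counts were normalised to the haploid input and turned into Kd by a linear fit to BCL2-family pairs of known affinity, for each replicate. The assay was run in three technical replicates.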

The variants keep the heavy chain, the linker and the frameworks of Ab-14 (scFv order VH, a 15-residue (Gly4Ser)3 linker, VL).
VH: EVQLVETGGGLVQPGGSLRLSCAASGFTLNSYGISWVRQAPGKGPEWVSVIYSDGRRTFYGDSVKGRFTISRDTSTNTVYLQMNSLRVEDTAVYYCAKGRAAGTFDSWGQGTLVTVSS
VL: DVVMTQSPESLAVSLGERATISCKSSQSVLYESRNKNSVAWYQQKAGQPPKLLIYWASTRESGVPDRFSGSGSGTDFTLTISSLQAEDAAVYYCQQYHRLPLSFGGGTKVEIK

Changes read parent residue, position, new residue, counted from the first residue of the VL shown.
This list gathers variants with a substitution at E32 (VL, numbered from residue 1).
Numbers give log10(Kd / nM), so 0 is 1 nM and 3 is 1 µM. Smaller is tighter.
An entry "nd" has no value in the source: the pair was not observed among the diploids in that replicate. This suggests poor binding but is not conclusive.
For reference, the parent read 0.65 as the reference entry and 1.68 as a member of this library.
Background: pairings of library AAYL50 with three empty control strains gave a value in 18% of cases (median 4.19, 5th percentile 2.99). Values in that range, when seen in few replicates, are hard to tell from nonspecific mating.

For V29E/E32S/A40F, the assay gave 4.18, 3.43, nd. The variant K24H/E32V/A57I gave nd, nd, nd. For S28R/E32F, the assay gave 3.90, 3.90, 3.96. The variant E32T/W56F/S62K showed 1.70, 1.50, 1.68. The variant S28N/E32T/S103G gave 1.92, 2.21, 2.30. The variant E32G/V39G/S58A gave nd, 4.72, 3.99. The variant E32M/S33K/A40K gave nd, 5.11, nd. For E32K/E61N/S62A, the assay gave 2.64, 2.53, 2.90.

The variant E32R/K36Y/S38P showed 3.64, 2.64, 2.72. With E32C/A40P/R60H the result was nd, nd, nd. The variant E32N/N35G gave nd, nd, nd. With S25N/E32A/N37Q the result was 3.41, 3.06, nd. For S25A/E32S/S62L, the assay gave 0.90, 1.24, 1.05. With L30M/E32D/W56Q the result was -0.26, 0.10, -0.09. With E32P/S38N/T59Q the result was 1.06, 1.15, 0.78. For Q27M/E32Q/A57W, the assay gave nd, nd, nd.

With E32M/S38V/R60D the result was nd, nd, 4.32. The variant E32T/N35V/Y97W showed nd, nd, nd. The variant E32G/W56Q/Q96C gave 0.52, 0.83, 0.76. The variant L30C/E32K/E61F showed nd, nd, nd. With E32W/Q95D/Q96I the result was 3.21, 2.94, 3.13. With V29R/E32S/A57R the result was 4.18, 3.46, nd. With S26Y/E32D/V39P the result was nd, nd, nd. With E32L/L100A/P101N the result was nd, 5.04, nd.

With E32C/A40K/L100H the result was nd, 2.91, nd. The variant Q27I/E32G/N37G gave 1.06, 1.12, 1.02. The variant E32Y/R34Q/S103D showed 1.21, 1.37, 1.33. The variant E32V/S38G/W56N gave 1.31, 1.40, 1.29. For E32R/R34D/R99L, the assay gave nd, 3.57, nd. The variant E32N/S58A/Q96M gave nd, nd, nd. The variant E32T/Q95R/L100C showed nd, nd, nd. The variant E32C/N35K/L100K showed 5.77, nd, nd.

The variant S28A/E32F/P101H gave 2.09, 2.06, 2.53. For E32A/S38N/P101T, the assay gave 2.31, 2.24, 4.29. For E32S/S38R/H98M, the assay gave 2.75, 3.23, 3.01. The variant S25P/E32Q/N37F gave 4.01, 3.05, 3.31. The variant E32M/R34Q/R60T gave 3.67, 2.99, 3.05. With S28K/E32Q/S58D the result was 2.19, 2.62, 1.63. For E32S/S38Y/Y97T, the assay gave nd, nd, nd. With E32V/N37T/R60W the result was nd, nd, nd.

Extract of 5 entries:

changes,"log10 Kd, replicates"
Q27I/E32G/N37G,"1.06, 1.12, 1.02"
E32P/S38N/T59Q,"1.06, 1.15, 0.78"
E32M/S38V/R60D,"nd, nd, 4.32"
L30C/E32K/E61F,"nd, nd, nd"
E32R/K36Y/S38P,"3.64, 2.64, 2.72"

Data: MIT Lincoln Laboratory AlphaSeq set, Engelhart et al. 2022, doi:10.1038/s41597-022-01779-4, as distributed in FLAb.